According to patent US20180245048A1, “METHODS AND COMPOSITIONS FOR EXPANSION AND DIFFERENTIATION OF SKELETAL MUSCLE STEM CELLS OR PROGENITOR CELLS” (AGENCY FOR SCIENCE, TECHNOLOGY AND RESEARCH, priority 2015, published 2018):

Tested on: induced pluripotent stem cell-derived myoblasts
Experiment: PAX7 mRNA expression in induced pluripotent stem cell-derived myoblasts
Assay type: cell-based, human
Settings: 20 ng/ml bFGF, 3 μM CHIR99021, 2.5 μg/ml DLL1, alone or combined; vs untreated control (FIG. 1)

B1: DLL1: Delta-like protein 1, Notch agonist (protein, UniProt O00548 18-723, looked up)
Delta-like protein 1: QVWSSGVFELKLQEFVNKKGLLGNRNCCRGGAGPPPCACRTFFRVCLKHYQASVSPEPPCTYGSAVTPVLGVDSFSLPDGGGADSAFSNPIRFPFGFTWPGTFSLIIEALHTDSPDDLATENPERLISRLATQRHLTVGEEWSQDLHSSGRTDLKYSYRFVCDEHYYGEGCSVFCRPRDDAFGHFTCGERGEKVCNPGWKGPYCTEPICLPGCDEQHGFCDKPGECKCRVGWQGRYCDECIRYPGCLHGTCQQPWQCNCQEGWGGLFCNQDLNYCTHHKPCKNGATCTNTGQGSYTCSCRPGYTGATCELGIDECDPSPCKNGGSCTDLENSYSCTCPPGFYGKICELSAMTCADGPCFNGGRCSDSPDGGYSCRCPVGYSGFNCEKKIDYCSSSPCSNGAKCVDLGDAYLCRCQAGFSGRHCDDNVDDCASSPCANGGTCRDGVNDFSCTCPPGYTGRNCSAPVSRCEHAPCHNGATCHERGHRYVCECARGYGGPNCQFLLPELPPGPAVVDLTEKLEGQGGPFPWVAVCAGVILVLMLLLGCAAVVVCVRLRLQKHRPPADPCRGETETMNNLANCQREKDISVSIIGATQIKNTNKKADFHGDHSADKNGFKARYPAVDYNLVQDLKGDDTAVRDAHSKRDTKCQPQGSSGEEKGTPTTLRGGEASERKRPDSGCSTSKDTKYQSVYVISEEKDECVIATEV
B1 was tested, and the “PAX7 mRNA expression” value was “increase in PAX7 expression”.
